Data as given in patent US9585929B2 (ZHEJIANG KANGLAITE GROUP CO., LTD., priority 2014, dated 2017).

How the values were obtained:
QGY human hepatoma = assay: Xenograft model of QGY human hepatoma inoculated subcutaneously in nude mice; settings: Adriamycin 2 mg/kg ip × 7 qd
A549 human lung cancer = assay: Xenograft model of A549 human lung cancer inoculated subcutaneously in nude mice; format: in vivo, BALB/C nude mice; settings: Cisplatin 2 mg/kg ip × 7 qd
Description: The injection of the invention (10 g/100 ml), Cisplatin (Qilu Phamaceutical Co., Ltd), blank fat emulsion and normal saline […]

| Weight of animal start (QGY human hepatoma) [g] | SMILES | Weight of animal start (A549 human lung cancer) [g] |
| --- | --- | --- |
| 21.8 | COc1cccc2c1C(=O)c1c(O)c3c(c(O)c1C2=O)C[C@@](O)(C(=O)CO)C[C@@H]3O[C@H]1C[C@H](N)[C@H](O)[C@H](C)O1 [Adriamycin] | – |
| – | N.N.[Cl][Pt][Cl] [Cisplatin] | 20.4 |
